# Source: patent publication US20090269781A1
# Target: calmodulin-binding peptide (M13) of myosin light-chain kinase
# Assay: cell-based or functional assay
substance,measurement,value
Xenopus laevis calmodulin (CaM) (from UniProt P0DP33 2-149),relative luminescence intensity of CPG with 1 mM histamine against background (COS-7 cells) (times background),3
same,time course of CPG luminescence after addition of 1 mM histamine,10 min
